For the test, the system named is Pyricularia oryzae. The class given is in vivo. As to conditions: blast of rice, 500 ppm in sprayed dilution.

Experimental findings from patent US4181714A (priority 1977, dated 1980) are described below.

In the case of `CC(C)OP(=O)(OC(C)C)SCc1ccccc1` [Kitazin-P, O,Odiisopropyl-S-benzylphosphorothiolate], the “Control Value” is 80%.
